Read-outs that look alike come from different tables or passages of the source.
What was measured:
catalepsy in rats = assay: Catalepsy assessment
[1] = for Final mean weight: end of study
[2] = initial parameter for simulation, 5 mg once daily oral
[3] = tested on: radial arm maze in vivo mouse model of cognition; conditions: risperidone alone; FIG. 19
[4] = in vivo, po
clinical = conditions: in vivo, po, 4 mg
[5] = tested on: in vivo mouse model of cognition; conditions: antipsychotic alone; FIG. 18

## Cc1nc2n(c(=O)c1CCN1CCC(c3noc4cc(F)ccc34)CC1)CCCC2 [Risperidone, risperidone]
Catalepsy in rats; agent alone, ip
  CD50 (dose that elicits 50% of maximum catalepsy): 1.1 mg/kg
Catalepsy in rats; in the presence of 1 mg/kg pimavanserin sc
  CD50: 2.0 mg/kg
Catalepsy in rats; in the presence of 3 mg/kg pimavanserin sc
  CD50: 4.4 mg/kg
Catalepsy in rats; in the presence of 10 mg/kg pimavanserin sc
  CD50: 5.1 mg/kg
[1]; 2 mg risperidone per day
  Mean weight gain: 1.1540 kg
  Final mean weight: 81.856 kg
[1]; 6 mg risperidone per day
  Mean weight gain: 2.1162 kg
  Final mean weight: 81.332 kg
[2]
  CL/F: 14409 mL/h
  CLD2/F: 9886 mL/h
  V2/F: 157246 mL
Serum prolactin levels; compared to vehicle controls, pimavanserin up to 3 mg/kg, FIG. 20A
  serum prolactin levels, dose response: dose-dependent increase in serum prolactin levels
Serum prolactin levels; fixed dose haloperidol (0.1 mg/kg) or risperidone (0.01 mg/kg) in the presence of pimavanserin, FIG. 20B
  magnitude of prolactinemia: significantly attenuated
Serum prolactin levels; risperidone 0.01 mg/kg ip, vehicle 24±3
  serum prolactin levels: 102 ± 12 ng/mL
[3]
  working memory errors after repeated trials: cognitive deficit
[4]
  CLD2/F: 9885.5 mL/h
  V2/F: 157245.7 mL
[4]; 4 mg
  CL/F: 14408.8 L/h
clinical
  AUC: 278 ng·h/mL
  Cmax: 25.8 ng/mL
  Tmax: 2.4 h
[5]
  percent novel object recognition: novel object recognition impairment

## Cc1cc2c(s1)Nc1ccccc1N=C2N1CCN(C)CC1 [olanzapine]
[5]
  percent novel object recognition: novel object recognition impairment
